This assay deals with T1, LH receptors on bovine granulosa cells and bovine small luteal cells (bovine), Q28005.
T1 chain: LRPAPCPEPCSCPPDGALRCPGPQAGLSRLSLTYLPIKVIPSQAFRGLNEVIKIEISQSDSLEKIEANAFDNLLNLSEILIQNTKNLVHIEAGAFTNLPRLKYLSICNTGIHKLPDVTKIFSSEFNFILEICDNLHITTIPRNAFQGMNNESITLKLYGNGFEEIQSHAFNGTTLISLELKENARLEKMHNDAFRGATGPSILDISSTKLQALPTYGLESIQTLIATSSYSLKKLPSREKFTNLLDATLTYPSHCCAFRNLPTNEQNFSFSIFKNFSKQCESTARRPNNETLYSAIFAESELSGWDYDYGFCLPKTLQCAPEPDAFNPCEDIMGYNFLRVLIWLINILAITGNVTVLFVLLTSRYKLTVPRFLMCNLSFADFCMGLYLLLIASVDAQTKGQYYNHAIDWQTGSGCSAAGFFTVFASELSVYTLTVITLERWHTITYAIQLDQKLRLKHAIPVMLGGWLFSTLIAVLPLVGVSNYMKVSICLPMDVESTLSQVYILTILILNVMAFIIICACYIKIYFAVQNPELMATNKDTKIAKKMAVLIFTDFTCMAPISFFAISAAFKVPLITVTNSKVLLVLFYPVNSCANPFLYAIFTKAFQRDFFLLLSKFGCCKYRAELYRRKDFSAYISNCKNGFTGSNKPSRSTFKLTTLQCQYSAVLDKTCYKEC
Put plainly: cell-based or functional assay.

Drawing on patent publication US7566777, this text covers killing of bovine granulosa cells for one molecule.

As for FALALKALKKALKKLKKALKKALSYAVALSCECALCRR (modifications not checked) [hecate-bLH conjugate], the killing of bovine granulosa cells at 1 µM (Trypan Blue exclusion) (fold against hecate alone) stood at 2.
